Experimental data: publication PMC10459521, “Unfolding the Antibacterial Activity and Acetylcholinesterase Inhibition Potential of Benzofuran-Triazole Hybrids: Synthesis, Antibacterial, Acetylcholinesterase Inhibition, and Molecular Docking Studies” (Molecules, 2023)

The chains behind the UniProt entries cited, without tags or fusion partners. Residues count along the entry.
UniProt P22303, 32-614: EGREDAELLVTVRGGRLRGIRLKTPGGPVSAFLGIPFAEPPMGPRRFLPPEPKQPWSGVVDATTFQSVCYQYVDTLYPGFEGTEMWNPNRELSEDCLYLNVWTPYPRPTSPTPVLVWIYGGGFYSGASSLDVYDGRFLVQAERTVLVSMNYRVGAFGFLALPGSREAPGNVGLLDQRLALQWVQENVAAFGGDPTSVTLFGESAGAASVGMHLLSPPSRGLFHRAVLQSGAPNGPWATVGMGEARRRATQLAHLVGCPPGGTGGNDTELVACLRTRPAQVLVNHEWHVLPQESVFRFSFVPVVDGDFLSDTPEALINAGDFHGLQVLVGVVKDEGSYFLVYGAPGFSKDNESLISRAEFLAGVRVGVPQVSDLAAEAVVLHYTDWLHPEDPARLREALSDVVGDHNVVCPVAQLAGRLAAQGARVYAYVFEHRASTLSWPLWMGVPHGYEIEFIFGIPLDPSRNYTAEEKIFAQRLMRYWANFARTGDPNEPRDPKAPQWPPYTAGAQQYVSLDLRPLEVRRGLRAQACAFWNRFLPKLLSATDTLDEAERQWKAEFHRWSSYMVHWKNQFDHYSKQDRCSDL

Molecular target: acetylcholinesterase (AChE) (Homo sapiens, UniProt P22303)
Assay: AChE inhibition assay (modified Ellman's method)
Type: biochemical
Experimental: The inhibitory effects of all synthesized derivatives on AChE activities were measured using a modified Ellman’s method. This experimental study used DTNB (5,5′-dithio-bis(2-nitro-benzoic)acid) and AChI as the […]. The tested compounds (10 µL; […]) were mixed with AChE (50 µL; 38 U) solution and incubated for 10 min at 25 °C. DTNB (50 µL; 0.3 mM) was then added. The transfer of AChI (200 µL; 50 mM Tris/HCl buffer pH = 8) initiated the reaction. A spectrophotometer recorded the hydrolysis of AChI by the formation of yellow 5-thio-2-nitrobenzoate anions as a result of the reaction of DTNB with thiocholine at a wavelength of 412 nm. […] The given formula was used to calculate the (%) inhibition: Inhibition %=Control−Test/Control×100
IC50 values were calculated using data from GraphPad Prism 5 software.

SMILES: CNC(=O)Oc1ccc2c(c1)[C@]1(C)CCN(C)[C@@H]1N2C [Eserine, eserine, reference compound]
- Inhibition % (0.5 mM): 93.20 ± 1.15%
